This passage reports Ki results from ChEMBL document CHEMBL4402597, “Truncated (N)-Methanocarba Nucleosides as Partial Agonists at Mouse and Human A3 Adenosine Receptors: Affinity Enhancement by N6-(2-Phenylethyl) Substitution” (J Med Chem, 2020).

The test has as its target T1, Adenosine receptor A3 (Mus musculus, UniProt Q61618).
T1 sequence (Q61618 whole entry): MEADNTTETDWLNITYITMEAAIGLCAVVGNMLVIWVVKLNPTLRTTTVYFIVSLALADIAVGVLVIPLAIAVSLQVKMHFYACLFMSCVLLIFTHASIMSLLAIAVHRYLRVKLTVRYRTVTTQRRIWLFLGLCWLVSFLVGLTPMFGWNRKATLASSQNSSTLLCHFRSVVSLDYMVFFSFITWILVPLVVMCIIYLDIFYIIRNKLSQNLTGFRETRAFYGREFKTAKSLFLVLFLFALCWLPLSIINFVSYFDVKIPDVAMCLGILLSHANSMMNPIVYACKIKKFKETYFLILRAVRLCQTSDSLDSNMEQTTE

As for `COc1cc(CCNc2nc(C#Cc3ccccc3)nc3c2ncn3[C@H]2[C@H](O)[C@H](O)[C@@H]3C[C@@H]32)ccc1O`, affinity was put at a Ki of 17.8 nM.
